Results: PMC4423116, “Tarantula toxins use common surfaces for interacting with Kv and ASIC ion channels” (eLife, 2015)

Biological target: T1, Kv2.1 channel (Rattus norvegicus, UniProt P15387)
T1 construct: expressed in transfected cells; host or cells: Xenopus laevis oocytes, cRNA injection
T1 sequence (P15387 1-857): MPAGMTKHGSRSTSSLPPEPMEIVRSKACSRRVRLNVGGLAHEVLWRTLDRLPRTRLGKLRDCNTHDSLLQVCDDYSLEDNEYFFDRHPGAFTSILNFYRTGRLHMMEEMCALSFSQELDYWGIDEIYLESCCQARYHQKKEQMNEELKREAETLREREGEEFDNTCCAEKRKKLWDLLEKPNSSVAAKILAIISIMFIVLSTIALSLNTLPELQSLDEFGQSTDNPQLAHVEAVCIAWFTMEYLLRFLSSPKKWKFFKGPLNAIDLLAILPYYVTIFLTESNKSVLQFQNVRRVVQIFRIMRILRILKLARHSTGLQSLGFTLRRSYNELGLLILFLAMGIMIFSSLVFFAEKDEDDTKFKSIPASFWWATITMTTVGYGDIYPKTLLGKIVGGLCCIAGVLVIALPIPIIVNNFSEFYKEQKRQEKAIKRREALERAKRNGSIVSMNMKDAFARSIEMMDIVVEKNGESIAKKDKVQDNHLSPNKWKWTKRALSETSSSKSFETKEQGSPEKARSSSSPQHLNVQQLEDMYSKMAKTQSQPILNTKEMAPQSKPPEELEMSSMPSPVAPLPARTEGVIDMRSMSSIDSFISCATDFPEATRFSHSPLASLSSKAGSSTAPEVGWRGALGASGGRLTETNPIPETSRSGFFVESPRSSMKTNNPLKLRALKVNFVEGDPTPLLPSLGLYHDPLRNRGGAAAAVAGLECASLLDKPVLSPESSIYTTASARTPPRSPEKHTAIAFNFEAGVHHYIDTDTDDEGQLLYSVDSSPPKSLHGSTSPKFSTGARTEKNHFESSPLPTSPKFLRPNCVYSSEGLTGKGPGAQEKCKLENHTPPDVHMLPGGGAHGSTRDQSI
Test: Inhibition of Kv2.1 channel currents in Xenopus oocytes (two-electrode voltage clamp), apparent affinity
Format: cell-based
Settings: Kv2.1 in oocytes; for ∆∆G (perturbation energy): from apparent Kd of mutant vs GxTx-1E(Nle); for Kd^mut/Kd^wt: ratio of apparent Kd of mutant to GxTx-1E(Nle)

Compound	∆∆G (perturbation energy)	Kd^mut/Kd^wt
CCCC[C@H](NC(=O)[C@@H]1CCCN1C(=O)[C@H](Cc1ccccc1)NC(=O)[C@H](CC(N)=O)NC(=O)[C@@H]1CSSC[C@@H]2NC(=O)[C@H](C)NC(=O)[C@@H]3CCCN3C(=O)[C@H](CCCCN)NC(=O)[C@H](C)NC(=O)[C@H](CO)NC(=O)CNC(=O)[C@@H]3CSSC[C@H](NC(=O)[C@H](C(C)C)NC(=O)[C@H](Cc4ccc(O)cc4)NC(=O)[C@H](CCCCN)NC(=O)[C@@H]4CCCN4C(=O)[C@H](CSSC[C@H](NC(=O)[C@H](CCC(=O)O)NC(=O)CNC(=O)[C@@H](N)CCC(=O)O)C(=O)NCC(=O)NCC(=O)N[C@@H](Cc4ccccc4)C(=O)N[C@@H](Cc4c[nH]c5ccccc45)C(=O)N[C@@H](Cc4c[nH]c5ccccc45)C(=O)N[C@@H](CCCCN)C(=O)N3)NC2=O)C(=O)N[C@@H](CO)C(=O)N2CCC[C@H]2C(=O)N[C@@H](CCCCN)C(=O)N[C@@H](Cc2c[nH]c3ccccc23)C(=O)NCC(=O)N[C@@H](CC(C)C)C(=O)N1)C(=O)N1CCC[C@H]1C(=O)O [Toxin G14A]	0.43 kcal/mol	2.1
CCCC[C@H](NC(=O)[C@@H]1CCCN1C(=O)[C@H](Cc1ccccc1)NC(=O)[C@H](CC(N)=O)NC(=O)[C@@H]1CSSC[C@@H]2NC(=O)[C@H](C)NC(=O)[C@@H]3CCCN3C(=O)[C@H](CCCCN)NC(=O)CNC(=O)[C@H](CO)NC(=O)CNC(=O)[C@@H]3CSSC[C@H](NC(=O)[C@H](C(C)C)NC(=O)[C@H](Cc4ccc(O)cc4)NC(=O)[C@H](CCCCN)NC(=O)[C@@H]4CCCN4C(=O)[C@H](CSSC[C@H](NC(=O)[C@H](CCC(=O)O)NC(=O)CNC(=O)[C@@H](N)CCC(=O)O)C(=O)NCC(=O)NCC(=O)N[C@@H](Cc4ccccc4)C(=O)N[C@@H](Cc4c[nH]c5ccccc45)C(=O)N[C@@H](Cc4c[nH]c5ccccc45)C(=O)N[C@@H](CCCCN)C(=O)N3)NC2=O)C(=O)N[C@@H](CO)C(=O)N2CCC[C@H]2C(=O)N[C@@H](C)C(=O)N[C@@H](Cc2c[nH]c3ccccc23)C(=O)NCC(=O)N[C@@H](CC(C)C)C(=O)N1)C(=O)N1CCC[C@H]1C(=O)O [Toxin K27A]	0.73 kcal/mol	3.4
CCCC[C@H](NC(=O)[C@@H]1CCCN1C(=O)[C@H](Cc1ccccc1)NC(=O)[C@H](CC(N)=O)NC(=O)[C@@H]1CSSC[C@@H]2NC(=O)[C@H](C)NC(=O)[C@@H]3CCCN3C(=O)[C@H](CCCCN)NC(=O)CNC(=O)[C@H](CO)NC(=O)CNC(=O)[C@@H]3CSSC[C@H](NC(=O)[C@H](C(C)C)NC(=O)[C@H](Cc4ccc(O)cc4)NC(=O)[C@H](CCCCN)NC(=O)[C@@H]4CCCN4C(=O)[C@H](CSSC[C@H](NC(=O)[C@H](CCC(=O)O)NC(=O)CNC(=O)[C@@H](N)CCC(=O)O)C(=O)NCC(=O)NCC(=O)N[C@@H](Cc4ccccc4)C(=O)N[C@@H](Cc4c[nH]c5ccccc45)C(=O)N[C@@H](Cc4c[nH]c5ccccc45)C(=O)N[C@@H](C)C(=O)N3)NC2=O)C(=O)N[C@@H](CO)C(=O)N2CCC[C@H]2C(=O)N[C@@H](CCCCN)C(=O)N[C@@H](Cc2c[nH]c3ccccc23)C(=O)NCC(=O)N[C@@H](CC(C)C)C(=O)N1)C(=O)N1CCC[C@H]1C(=O)O [Toxin K10A]	0.88 kcal/mol	4.4
CCCC[C@H](NC(=O)[C@@H]1CCCN1C(=O)[C@H](Cc1ccccc1)NC(=O)[C@H](CC(N)=O)NC(=O)[C@@H]1CSSC[C@@H]2NC(=O)[C@H](C)NC(=O)[C@@H]3CCCN3C(=O)[C@H](CCCCN)NC(=O)CNC(=O)[C@H](CO)NC(=O)CNC(=O)[C@@H]3CSSC[C@H](NC(=O)[C@H](C(C)C)NC(=O)[C@H](Cc4ccc(O)cc4)NC(=O)[C@H](CCCCN)NC(=O)[C@@H]4CCCN4C(=O)[C@H](CSSC[C@H](NC(=O)[C@H](CCC(=O)O)NC(=O)CNC(=O)[C@@H](N)CCC(=O)O)C(=O)NCC(=O)N[C@@H](C)C(=O)N[C@@H](Cc4ccccc4)C(=O)N[C@@H](Cc4c[nH]c5ccccc45)C(=O)N[C@@H](Cc4c[nH]c5ccccc45)C(=O)N[C@@H](CCCCN)C(=O)N3)NC2=O)C(=O)N[C@@H](CO)C(=O)N2CCC[C@H]2C(=O)N[C@@H](CCCCN)C(=O)N[C@@H](Cc2c[nH]c3ccccc23)C(=O)NCC(=O)N[C@@H](CC(C)C)C(=O)N1)C(=O)N1CCC[C@H]1C(=O)O [Toxin G6A]	0.31 kcal/mol	–
CCCC[C@H](NC(=O)[C@@H]1CCCN1C(=O)[C@H](C)NC(=O)[C@H](CC(N)=O)NC(=O)[C@@H]1CSSC[C@@H]2NC(=O)[C@H](C)NC(=O)[C@@H]3CCCN3C(=O)[C@H](CCCCN)NC(=O)CNC(=O)[C@H](CO)NC(=O)CNC(=O)[C@@H]3CSSC[C@H](NC(=O)[C@H](C(C)C)NC(=O)[C@H](Cc4ccc(O)cc4)NC(=O)[C@H](CCCCN)NC(=O)[C@@H]4CCCN4C(=O)[C@H](CSSC[C@H](NC(=O)[C@H](CCC(=O)O)NC(=O)CNC(=O)[C@@H](N)CCC(=O)O)C(=O)NCC(=O)NCC(=O)N[C@@H](Cc4ccccc4)C(=O)N[C@@H](Cc4c[nH]c5ccccc45)C(=O)N[C@@H](Cc4c[nH]c5ccccc45)C(=O)N[C@@H](CCCCN)C(=O)N3)NC2=O)C(=O)N[C@@H](CO)C(=O)N2CCC[C@H]2C(=O)N[C@@H](CCCCN)C(=O)N[C@@H](Cc2c[nH]c3ccccc23)C(=O)NCC(=O)N[C@@H](CC(C)C)C(=O)N1)C(=O)N1CCC[C@H]1C(=O)O [Toxin F33A]	0.47 kcal/mol	2.2
CCCC[C@H](NC(=O)[C@@H]1CCCN1C(=O)[C@H](Cc1ccccc1)NC(=O)[C@H](CC(N)=O)NC(=O)[C@@H]1CSSC[C@@H]2NC(=O)[C@H](C)NC(=O)[C@@H]3CCCN3C(=O)[C@H](CCCCN)NC(=O)CNC(=O)[C@H](CO)NC(=O)CNC(=O)[C@@H]3CSSC[C@H](NC(=O)[C@H](C(C)C)NC(=O)[C@H](Cc4ccc(O)cc4)NC(=O)[C@H](CCCCN)NC(=O)[C@@H]4CCCN4C(=O)[C@H](CSSC[C@H](NC(=O)[C@H](CCC(=O)O)NC(=O)[C@H](C)NC(=O)[C@@H](N)CCC(=O)O)C(=O)NCC(=O)NCC(=O)N[C@@H](Cc4ccccc4)C(=O)N[C@@H](Cc4c[nH]c5ccccc45)C(=O)N[C@@H](Cc4c[nH]c5ccccc45)C(=O)N[C@@H](CCCCN)C(=O)N3)NC2=O)C(=O)N[C@@H](CO)C(=O)N2CCC[C@H]2C(=O)N[C@@H](CCCCN)C(=O)N[C@@H](Cc2c[nH]c3ccccc23)C(=O)NCC(=O)N[C@@H](CC(C)C)C(=O)N1)C(=O)N1CCC[C@H]1C(=O)O [Toxin G2A]	0.17 kcal/mol	–
CCCC[C@H](NC(=O)[C@@H]1CCCN1C(=O)[C@H](Cc1ccccc1)NC(=O)[C@H](CC(N)=O)NC(=O)[C@@H]1CSSC[C@@H]2NC(=O)[C@H](C)NC(=O)[C@@H]3CCCN3C(=O)[C@H](CCCCN)NC(=O)CNC(=O)[C@H](CO)NC(=O)CNC(=O)[C@@H]3CSSC[C@H](NC(=O)[C@H](C(C)C)NC(=O)[C@H](Cc4ccc(O)cc4)NC(=O)[C@H](C)NC(=O)[C@@H]4CCCN4C(=O)[C@H](CSSC[C@H](NC(=O)[C@H](CCC(=O)O)NC(=O)CNC(=O)[C@@H](N)CCC(=O)O)C(=O)NCC(=O)NCC(=O)N[C@@H](Cc4ccccc4)C(=O)N[C@@H](Cc4c[nH]c5ccccc45)C(=O)N[C@@H](Cc4c[nH]c5ccccc45)C(=O)N[C@@H](CCCCN)C(=O)N3)NC2=O)C(=O)N[C@@H](CO)C(=O)N2CCC[C@H]2C(=O)N[C@@H](CCCCN)C(=O)N[C@@H](Cc2c[nH]c3ccccc23)C(=O)NCC(=O)N[C@@H](CC(C)C)C(=O)N1)C(=O)N1CCC[C@H]1C(=O)O [Toxin K21A]	0.40 kcal/mol	2.0
CCCC[C@H](NC(=O)[C@@H]1CCCN1C(=O)[C@H](Cc1ccccc1)NC(=O)[C@H](CC(N)=O)NC(=O)[C@@H]1CSSC[C@@H]2NC(=O)[C@H](C)NC(=O)[C@@H]3CCCN3C(=O)[C@H](CCCCN)NC(=O)CNC(=O)[C@H](CO)NC(=O)CNC(=O)[C@@H]3CSSC[C@H](NC(=O)[C@H](C(C)C)NC(=O)[C@H](Cc4ccc(O)cc4)NC(=O)[C@H](CCCCN)NC(=O)[C@@H]4CCCN4C(=O)[C@H](CSSC[C@H](NC(=O)[C@H](CCC(=O)O)NC(=O)CNC(=O)[C@@H](N)CCC(=O)O)C(=O)NCC(=O)NCC(=O)N[C@@H](C)C(=O)N[C@@H](Cc4c[nH]c5ccccc45)C(=O)N[C@@H](Cc4c[nH]c5ccccc45)C(=O)N[C@@H](CCCCN)C(=O)N3)NC2=O)C(=O)N[C@@H](CO)C(=O)N2CCC[C@H]2C(=O)N[C@@H](CCCCN)C(=O)N[C@@H](Cc2c[nH]c3ccccc23)C(=O)NCC(=O)N[C@@H](CC(C)C)C(=O)N1)C(=O)N1CCC[C@H]1C(=O)O [Toxin F7A]	3.55 kcal/mol	–
